These results are taken from paper PMC4844702, “Selective inhibition of the kinase DYRK1A by targeting its folding process” (Nature Communications, 2016).

The target of one assay is FLAG-DYRK1A (Homo sapiens, UniProt Q13627). Put plainly: 2A peptide bicistronic FLAG-DYRK1A/HA-EGFP expression in HEK293 cells, western blot. To be noted: added with doxycycline, 5 h. In kind it is cell-based.
A further assay deals with DYRK1A (Homo sapiens, UniProt Q13627). Put plainly: SPHINKS assay: TAU (Thr212) phosphorylation by induced DYRK1A in HEK293 cells, western blot. It is filed as cell-based. To be noted: 10 μM, compound added after accumulation of mature DYRK1A.
For assay [1], the target named is human DYRK1A kinase domain (Homo sapiens, UniProt Q13627). The assay can be described thus: RI-in vitro kinase assay with DYRKtide. It is filed as biochemical. The conditions noted are these: read-out: IC50, kinase activity of recombinant DYRK1A; DYRKtide substrate; Supplementary Fig. 13d, n=3.

As for `C[Si](C)(C)C#Cc1cc(/C=C2\SC(=S)NC2=O)ccc1O`, the “amount of FLAG-DYRK1A (destabilization)” value on FLAG-DYRK1A is “did not destabilize”. In addition, the “TAU phosphorylation in Tc 2” value on DYRK1A is “inhibited”. Further, the IC50 in assay [1] amounted to 1090 nM.
